## Measured affinities in a library of Ab-91 heavy chain variants

The measurements come from Engelhart et al. 2022 (doi:10.1038/s41597-022-01779-4) through the FLAb antibody collection.

Antigen: PDVDLGDISGINAS, a 14-residue peptide of the SARS-CoV-2 spike HR2 region.

Ab-91 is the parent antibody, in scFv form: VL, then a (GGGGS)3 linker, then VH. The light chain is unchanged in all variants.
VL: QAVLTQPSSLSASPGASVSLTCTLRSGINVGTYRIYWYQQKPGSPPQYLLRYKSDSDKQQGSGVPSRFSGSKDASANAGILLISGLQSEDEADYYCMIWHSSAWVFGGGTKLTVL
VH: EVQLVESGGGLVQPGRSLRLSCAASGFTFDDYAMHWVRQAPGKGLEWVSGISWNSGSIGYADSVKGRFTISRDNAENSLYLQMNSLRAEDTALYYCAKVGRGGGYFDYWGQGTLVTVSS

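The library (AAYL51) carries one to three amino acid substitutions per variant, with no insertions or deletions. AlphaSeq pools MATa yeast showing the antibodies with MATalpha yeast showing the peptide. After mating in shaken culture at 30 °C for 16 h, diploids were selected and their barcode pairs sequenced. A regression on co-assayed BCL2-family reference pairs converts the normalised counts of each replicate to an apparent Kd. Each pool was mated in three replicate cultures.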

Variants are written as CDR1, CDR2 and CDR3 of the heavy chain (limits as in the source). Parent: GFTFDDYAMH, GISWNSGSIGYADSVK, VGRGGGYFDY.
Values are log10 of the apparent Kd in nM; lower means stronger binding.
A pair that was not seen in that replicate is written "nd"; this usually means weak binding, but a binder can also be missed.
Empty control strains, which show no peptide, gave a signal in 21% of pairings with library AAYL51; the median was 4.54 and 95% of these signals were weaker than 3.26. No background was subtracted.

For GFTFNDYAMH / GWSWNSGSIGYADSVK / MGRGGGYFDY, the assay gave 4.53, nd, nd.
For GFTFDDYAMH / GISWNSGSIGYRDLVK / VLRGGGYFDY, the assay gave nd, nd, nd.
For GFTFDDYAMH / GISWNSGSIGAARQVK / VGRGGGYFDY, the assay gave 3.58, 4.37, nd.
For GNTFDDYAMH / GISWNSGMIGYADSVK / VGRGGGYLDY, the assay gave 5.24, 4.95, nd.
For GFTFDDYAMH / GISWNSGSIWYADPVK / VGRGGGYFDY, the assay gave 3.66, nd, nd.
For GFTFDDYAMH / GISWNSGSIGYARSKK / VGRGGGYFDY, the assay gave nd, nd, nd.
For GFTSDDYAMH / GISWNSGSIGFADSVK / VGRGGGYFDY, the assay gave nd, 4.68, nd.
For GFTFDDYAMH / GISRNSGSIGYADEVK / VGRGGGYGDY, the assay gave 4.71, nd, nd.
For GFTFDKYAMH / GIKWNSGSIGYADSVK / VIRGGGYFDY, the assay gave 5.13, nd, nd.
For GFTFPDYQMH / GISWNSGSIGYADSVK / QGRGGGYFDY, the assay gave 4.83, nd, 2.45.
For GITFDDYWMH / GISWNSGSIGYADSVK / VGRGGGEFDY, the assay gave nd, nd, nd.
For GFTFDDYAMH / VISWNSGSIGYNDSVK / VIRGGGYFDY, the assay gave nd, nd, 4.93.
For GFTFRDYAWH / GGSWNSGSIGYADSVK / VGRGGGYFDY, the assay gave 4.38, nd, nd.
For GFTFDDYAMH / GWSWNSGSIGYHDSVT / VGRGGGYFDY, the assay gave nd, nd, nd.
For YFTFDDYAMH / GWSWNSGSIGYAGSVK / VGRGGGYFDY, the assay gave nd, nd, nd.
For GFTFDDYAMH / GISDNSGSICYADSVK / VHRGGGYFDY, the assay gave nd, nd, nd.
For GFTFDDYAMH / GISWKSGSIGYADTVK / VGRGGGYFYY, the assay gave 4.37, 5.39, nd.
For GFTFGDYAMH / GISWNSGSIGYADSMK / VRRGGGYFDY, the assay gave nd, nd, nd.

Continued, with the values leading:

nd, 4.74, nd for GFTFDDRAMH / GISWNSGSIGYADSVA / VGRGGGYFDG.
2.78, 2.32, 1.94 for GFTFDEYAMH / GISWNSGSWGYADCVK / VGRGGGYFDY.
5.57, 4.13, 3.51 for GFTWDDKAMH / GISWNSGSIGYADSDK / VGRGGGYFDY.
nd, nd, nd for AFTFDDYAMH / GISWNSGSIGYADSAK / VGRGGGYEDY.
nd, nd, nd for GFTFWDYAMH / KISWNSGSIGYADSVK / VGRGGGYFQY.
nd, nd, 4.46 for GFTMDDYAMH / GISWNSGSIMYADSVK / VLRGGGYFDY.
nd, 5.71, nd for GFTFDDYTMH / GISDNSGSIGYADSVK / VGRGGGYFDY.
0.96, 1.06, 0.03 for GFTFDDGAMH / GISWNSGSIGYADRVE / VGRGGGYFDY.
nd, 6.47, 4.82 for GFTFDDVAMH / GIIWNSGSIGYADSVK / VGRGGGYFDD.
3.98, 5.27, nd for GFTFDDYAMH / GISWNSGSIGYADSVV / VSRGGGYFDY.
4.02, 4.79, nd for GFTFDDYAMH / GASWNSCSIGYRDSVK / VGRGGGYFDY.
1.85, 1.83, 1.42 for GFNFDDYAMH / GISWNSGSIGYADSVK / VGRGGGCCDY.
nd, nd, nd for GFTFDDYAMH / GISWNSGSYEYADSVK / VGNGGGYFDY.
1.95, 2.27, 1.57 for GFTFDKYAMH / GISWNSGPKGYADSVK / VGRGGGYFDY.
nd, 4.47, nd for GFHFDDYAMH / GISWNSGSIGYADSKK / VGRGGGYFDY.
nd, nd, nd for GFTFDDYAMH / RISWNSGVIGYADSVK / VGRGGIYFDY.
2.42, 2.11, 2.18 for GFTFDDYAMH / GISWHSGSIGYADSVK / VGCGGGYFDY.
nd, nd, nd for GFTFDDYAMH / GISWNGGSIGYADSVK / VGRQGGYFDP.
nd, 5.77, 4.95 for GFTFDDYAIH / GISWNSGSIGYWMSVK / VGRGGGYFDY.

4 of these entries, quoted again:

CDR-H1	CDR-H2	CDR-H3	replicates, log10 nM
GFTFDDYAMH	GISWNSGSIWYADPVK	VGRGGGYFDY	3.66, nd, nd
GFNFDDYAMH	GISWNSGSIGYADSVK	VGRGGGCCDY	1.85, 1.83, 1.42
GFTFDDYAMH	GISWNSGSYEYADSVK	VGNGGGYFDY	nd, nd, nd
GFTFDDYAMH	VISWNSGSIGYNDSVK	VIRGGGYFDY	nd, nd, 4.93